Experimental data from PMC4525181, “Structural and dynamic insights into the energetics of activation loop rearrangement in FGFR1 kinase” (Nature Communications, 2015).
pKd: −log10 of the molar value.

By UniProt entry, the sequences of proteins in these tests, tags left out. Residues count along the entry.
UniProt P11362, 458-765 C488A/C584S: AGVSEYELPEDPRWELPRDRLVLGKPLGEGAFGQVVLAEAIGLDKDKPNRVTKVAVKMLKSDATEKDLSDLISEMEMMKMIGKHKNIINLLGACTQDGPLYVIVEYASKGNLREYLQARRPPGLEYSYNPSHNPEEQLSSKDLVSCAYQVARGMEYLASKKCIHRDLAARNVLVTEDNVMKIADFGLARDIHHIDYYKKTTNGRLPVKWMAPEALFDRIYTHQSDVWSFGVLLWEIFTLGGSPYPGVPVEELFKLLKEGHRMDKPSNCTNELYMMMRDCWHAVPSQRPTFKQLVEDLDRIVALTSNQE

How the values were obtained:
FGFR1 kinase domain [1] = biological target: T1, FGFR1 kinase domain (Homo sapiens, UniProt P11362, C488A/C584S); experiment: SPR kinetic analysis of inhibitors binding to FGFR1 kinase domain; conditions: 298 K, pH 7.4, read-out: KD (koff/kon)
T1 construct: Human FGFR1 consisting of residues Ala458-Glu765; made in house; host or cells: Escherichia coli, co-expressed with PTP1B

FGFR1 kinase domain [2] = biological target: T1, FGFR1 kinase domain; experiment: Isothermal titration calorimetry (ITC) of inhibitors binding to FGFR1; conditions: 298 K

- pKd (FGFR1 kinase domain [1]): 7.15
- pKd (FGFR1 kinase domain [2]): 7.12
Substance: SU5402
